High-throughput results: PubChem BioAssay, National Center for Advancing Translational Sciences (NCATS)
Shown are actives, neighbours in structure and some others; about 16% of the full set was active somewhere.
TDP1 block: inhibitors of human tyrosyl-DNA phosphodiesterase TDP1; recombinant TDP1, AlphaScreen DNA substrate cleavage; Potency, µM (highest dose often 130 µM), inactives show top-dose activity change, negative = inhibition, most hits filed as inhibitors; actives 0.28% (n = 350,000); Q9NUW8; also: potency is read from the fitted curve at half-maximal effect; % is scaled to controls: 0 for no effect and ±100 for the full control effect; nearly all actives have a fitted effect of over 40% in size
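Compounds were preincubated with Tdp1 (1 nM final) for 15 min at room temperature before substrate (15 nM final) started a 5 min reaction; beads (10 ug/ml final) were then added for 10 min before AlphaScreen detection.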
miR-21 reporter: raises the signal of a miR-21 reporter; HeLa miR-21 FLuc reporter, luciferase, 48 h; Potency, µM (top dose mostly 38.3 µM), for inactives: at the highest dose reporter change, positive = more light; AID 2288; 340,000 tested, under 10 active; active = well fitted rising curve with a large enough effect; inconclusive = small, poorly fitted or top-dose-only effect; inactive = no such curve, though single readings can be large or run the other way;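 note: % of control where 0% means no effect; miR-21 action dims this reporter so a rising signal means less miR-21 action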
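HeLa cells endogenously expressing miR-21, stably carrying CMV-driven firefly luciferase with a downstream miR-21 binding site, 2000 cells/well. Titrations up to approximately 40 uM, 48 hours; luciferase luminescence read.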
DT40 TDP1 CPT: growth inhibition of DT40 Tdp1-/-;hTDP1 cells with camptothecin (screen for TDP1 inhibitors) | chicken DT40 Tdp1-/-;hTDP1 cells + 20 nM CPT, ATP luminescence, 48 h | Potency, µM (titrated, usually from 46.2 µM), inactives show top-dose activity change, negative = growth inhibition, usual class: inhibitors | actives 12% (n = 420,000); also: potency is read from the fitted curve at half-maximal effect; % is scaled to controls: 0 for no effect and ±100 for the full control effect; nearly all actives have a fitted effect of over 55% in size
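Cell growth measured by CellTiter-Glo luminescence after a minimum 48 h, 37 C compound exposure with 20 nM CPT in Tdp1-knockout DT40 cells stably expressing hTDP1, seeded 400/well; qHTS titration format.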
uPA surface inh: cell surface uPA generation inhibition. cell surface uPA generation assay, qHTS. actives 0.31% (n = 330,000). AID 540303. Potency, µM (doses to about 38.3 µM), without a hit: at the top dose activity change, negative = inhibition, hits mostly inhibitors; active = well fitted inhibition curve with a large enough effect; inconclusive = small, poorly fitted or top-dose-only effect; inactive = no such curve, though single readings can be large or run the other way; tested in mouse RAW 264.7 cells; also: potency is read from the fitted curve at half-maximal effect; % is scaled to controls: 0 for no effect and ±100 for the full control effect; nearly all actives have a fitted effect of over 55% in size
TDP1 cell noCPT: qHTS for Inhibitors of human tyrosyl-DNA phosphodiesterase 1 (TDP1): qHTS in cells in absence of CPT. Potency, µM (series often up to 46.2 µM), without a hit: at the highest dose activity change, negative = growth inhibition, hits mostly inhibitors. actives 15% (n = 420,000). DT40 Tdp1-/- hTDP1 cells, no CPT, ATP luminescence, 48 h; also: potency is read from the fitted curve at half-maximal effect; % is scaled to controls: 0 for no effect and ±100 for the full control effect; nearly all actives have a fitted effect of over 55% in size
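Chicken DT40 Tdp1-/- cells complemented with human TDP1, screened without camptothecin (DMSO vehicle only), 400 cells/well. Compounds pin-transferred, cells incubated at 37 °C for at least 48 hr. Growth read as ATP-dependent luminescence (CellTiter-Glo, 30 min at RT).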
Numbers without * were called inactive; ? = inconclusive; · = no result given; ! = repeats disagree; [ ] = remark or other dose. Unless noted, calls follow the shape of the dose curve; as a rule, active = well fitted curve in the direction sought with a large enough effect; inconclusive = small, poorly fitted or top-dose-only effect, or another doubt; inactive = no such curve, though single readings can be large; an effect the other way counts as inactive or inconclusive.

structure	TDP1 block	miR-21 reporter	DT40 TDP1 CPT	uPA surface inh	TDP1 cell noCPT
CCOC(=O)C1(c2ccccc2)CCN(CCC(=O)Nc2cccc(Br)c2)CC1	3%	·	?	-6%	?
CCOC(=O)C1(c2ccccc2)CCN(CCC(=O)Nc2ccc(C(=O)OC)cc2)CC1	3%	·	21µM*	?	?
CN(C)C(=O)Oc1c(Cl)cc(Cl)c2cccnc12	-1%	-8%	1%	-2%	-3%
Cc1ccc2c(Cl)cc(Cl)c(O)c2n1	13%	·	2.9µM*!	0%	3.3µM*!
C[N+]1(C)C2CC(OC(=O)[C@H](CO)c3ccccc3)CC1C1OC12 (stereo partly specified)	·	·	-9%	27%	-1%
CCOC(=O)C(O)(c1cn(C)c2ccccc12)C(F)(F)F (stereo unspecified)	0%	-5%	-14%	-1%	-6%
CCOCCCNC(=O)c1c[nH]c2ccc(S(=O)(=O)N(C)c3ccc(Cl)cc3F)cc2c1=O	-3%	14%	23µM*	·	16µM*
O=C1C=C2C=C[C@@H]3CC2(O1)[C@H]1CCCCN31	·	·	?	?	18µM*
O=C1C=C2C=C[C@H]3C[C@@]2(O1)[C@H]1CCCCN31	10%[21 µM]	·	·	·	·
c1ccc(CN2CCN(Cc3ccc4ccccc4c3)CC2)cc1	·	-5%	18µM*	-2%	16µM*
COc1ccc(OC(=O)N(C)C[C@H]2OCc3cnnn3CCCC(=O)N([C@H](C)CO)C[C@H]2C)cc1	·	·	1%	·	-3%
Cc1ccc(-c2nc3ccc(Cl)cn3c2Nc2ccccc2C)s1	8%	-30%	21µM*	·	16µM*
O=C(Oc1ccccc1)N1CCC2(CCN(Cc3ccccc3)CC2)CC1	·	·	6%	·	-8%
c1ccc(CN2CCC3(CCNCC3)CC2)cc1	·	·	4.6µM*	·	3.3µM*
c1ccc(N2CCC3(CCNCC3)CC2)nc1	·	·	18µM*	·	?
O=C1NCN(c2ccccc2)C12CCNCC2	5%	-1%	-14%	·	-5%
c1ccc(CN2CCC3(CCc4ccccc43)CC2)cc1	12%	·	24µM*	·	?
c1ccc(N2CCC3(CCNCC3)CC2)cc1	·	·	-102%	·	18µM*
Cc1ccccc1C(=O)Nc1cc(-c2ccc(Cl)cc2)nn1-c1ccccc1	-3%	-14%	?	·	?
S=C(SSC(=S)N1CCCCC1)N1CCCCC1	·	·	0.75µM*	·	0.94µM*
O=C1NC(=O)C2C1C1(Cl)C(Cl)=C(Cl)C2(Cl)C1(Cl)Cl (stereo unspecified)	·	·	-22%	-2%	-14%
COc1ccc(C2SCC(=O)Nc3c2c(=O)[nH]n3C2CCCCCC2)cc1OC (stereo unspecified)	2%	-4%	-27%	·	?
COc1ccc(-c2nnc3sc(C4CCCCC4)nn23)cc1OC	4%	-17%	18µM*	-4%	15µM*
CCCCN1CCS(=O)(=O)N(Cc2ccccc2Br)CC(C(=O)OC)C1 (stereo unspecified)	-4%[56.1 µM]	·	?	3%	?
Cn1c(=O)c2c(-c3ccccc3)n3c(c2n(C)c1=O)C(c1cc(Cl)ccc1O)Nc1ccccc1-3 (stereo unspecified)	6%	2%	9.2µM*	·	15µM*

2 entries from above, as labelled records:
SMILES: CCCCN1CCS(=O)(=O)N(Cc2ccccc2Br)CC(C(=O)OC)C1 (stereo unspecified)
  TDP1 block: -4%[56.1 µM]; miR-21 reporter: ·; DT40 TDP1 CPT: ?; uPA surface inh: 3%; TDP1 cell noCPT: ?
SMILES: Cn1c(=O)c2c(-c3ccccc3)n3c(c2n(C)c1=O)C(c1cc(Cl)ccc1O)Nc1ccccc1-3 (stereo unspecified)
  TDP1 block: 6%; miR-21 reporter: 2%; DT40 TDP1 CPT: 9.2µM*; uPA surface inh: ·; TDP1 cell noCPT: 15µM*

Remaining list, next part.
structure	TDP1 block	miR-21 reporter	DT40 TDP1 CPT	uPA surface inh	TDP1 cell noCPT
COc1ccc(-c2c3c(=O)n(C)c(=O)n(C)c3c3n2-c2ccccc2NC3c2ccccc2OC)cc1 (stereo unspecified)	9%	-6%	10µM*	·	15µM*
Cc1nc2ccc(Nc3nc4cc(S(=O)(=O)N5CCOCC5)ccc4o3)cc2s1	6%	-29%	16µM*	-5%	18µM*
ClCC(Cl)Cl	2%	·	·	·	·
CC(C)[N+](C)(C)CC(O)CN(c1ccccc1)c1ccccc1 (stereo unspecified)	3%	-1%	?	0%	-27%
COC(=O)C1CN(C#N)N(c2ccc(Cl)cc2)C12c1ccccc1-c1ccccc12 (stereo unspecified)	2%	?	3.3µM*	-12%	2.9µM*
COc1ccc(C2=C(C(C)=O)Sc3nnc(-c4ccc(C)cc4)n3N2C(C)=O)cc1OC	-5%	1%	2.9µM*	·	4.6µM*
c1ccc2nc3ccccc3cc2c1	7%	·	10µM*	·	13µM*
Cc1ccc2ccccc2c1	15%	·	·	·	·
CC(C)[C@]12O[C@H]1[C@@H]1O[C@]13[C@]1(O[C@H]1C[C@H]1C4=C(CC[C@@]13C)C(=O)OC4)[C@@H]2O	6%	?	0.12µM*	·	0.15µM*
FC(F)(F)c1ccccc1NC1=NCCCS1	3%	-1%	-20%	0%	-1%
O=C(Cn1c(=O)n(CC2CS2)c2ccccc21)N1CCCCCC1 (stereo unspecified)	5%	-1%	2%	3%	14%

Whole records, quoted from the list.
Results for `COc1ccc(OC(=O)N(C)C[C@H]2OCc3cnnn3CCCC(=O)N([C@H](C)CO)C[C@H]2C)cc1` : TDP1 block: ·; miR-21 reporter: ·; DT40 TDP1 CPT: 1%; uPA surface inh: ·; TDP1 cell noCPT: -3%
Results for `Cc1ccccc1C(=O)Nc1cc(-c2ccc(Cl)cc2)nn1-c1ccccc1` : TDP1 block: -3%; miR-21 reporter: -14%; DT40 TDP1 CPT: ?; uPA surface inh: ·; TDP1 cell noCPT: ?
